Screening data from PubChem.
Shown are actives, neighbours in structure and some others; about 2.3% of the full set was active somewhere.
Mito fusion yeast – blocks mitochondrial division or promotes mitochondrial fusion | S. cerevisiae fusion-defective mutant growth rescue, CellTiterGlo 48 h | Potency, µM (doses to about 46.1 µM), for inactives: at the top dose growth rescue (activation), most hits filed as activators | 0.23% of 320,000 active; note: potency is the fitted concentration of half-maximal effect; % of control where 0% means no effect; nearly all actives have a fitted effect of over 45% in size
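Temperature-sensitive fusion-defective S. cerevisiae (e.g. fzo1-1, mgm1-5) were grown with compound in YPEG medium (3% ethanol, 3% glycerol) for 48 hours at 37C. Growth rescue was measured as viability by CellTiterGlo luminescence after 10 minutes at ambient.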
miR-21 FLuc – miR-21 reporter, rising signal; HeLa miR-21 FLuc reporter, luciferase, 48 h; Potency, µM (titrated, usually from 38.3 µM), without a hit: top-dose reporter change, positive = more light; AID 2288; 340,000 tested, under 10 active; active = well fitted rising curve with a large enough effect; inconclusive = small, poorly fitted or top-dose-only effect; inactive = no such curve, though single readings can be large or run the other way;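 further: % of control where 0% means no effect; miR-21 action dims this reporter so a rising signal means less miR-21 action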
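Compounds were titrated across several concentrations (up to approximately 40 uM) and incubated 48 hours with HeLa miR-21-FLuc reporter cells (miR-21 target sequence downstream of FLuc, endogenous miR-21). Readout was firefly luciferase luminescence after lytic detection reagent.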
Nrf2 block – blocks Nrf2 signaling; Potency, µM (doses to about 46 µM), without a hit: at the highest dose activity change, negative = inhibition, most hits filed as inhibitors; A549 ARE-Fluc reporter, luciferase luminescence, 18-24 h; 2.1% of 360,000 active; note: potency is the fitted concentration of half-maximal effect; % is set by controls: 0 for no effect and ±100 for the full control effect; nearly all actives have a fitted effect of over 60% in size
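Nrf2 function is reported as luminescence of an ARE-controlled luciferase in A549 cells. Compounds were tested at several concentrations, and a CellTiter-Fluor read on the same wells flagged cytotoxicity.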
GRP78 ERSR act – ER stress response induction in glioma | U87-MG GRP78 promoter luciferase reporter, 16 h | Potency, µM, without a hit: at the highest dose activation, actives largely listed as activators | 0.02% of 420,000 active; note: potency is the fitted concentration of half-maximal effect; series mostly up to about 76 µM; % of control where 0% means no effect; nearly all actives have a fitted effect of over 35% in size
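Stably transfected U87-MG human glioma cells carrying a GRP78-based luminescent sensor were seeded at 1000 cells/well, pin-dosed with compounds and incubated 16 h. Luciferase reagent was then added, and end-point luminescence was read after 10 min at room temperature.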
A549 tox – counter-screen for Nrf2 inhibitors: cytotoxicity in A549 cells. A549 ARE-Fluc cells, CellTiter-Fluor viability, 18-24 h. 0.16% of 390,000 active. AID 504648. Potency, µM (series often up to 46 µM), without a hit: at the top dose activity change, negative = cytotoxicity, most hits filed as inhibitors; note: potency is the fitted concentration of half-maximal effect; % is set by controls: 0 for no effect and ±100 for the full control effect
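Cytotoxicity counterscreen: CellTiter-Fluor fluorescence was measured in A549 ARE_Fluc cells after 18-24 h of compound exposure in a concentration series. The subsequent BugLite luminescent read reports ARE-luciferase activity.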
Nrf2 activator – Nrf2 pathway activation; AREc32 ARE-luciferase reporter (MCF7-derived line), luminescence, 24 h; Potency, µM (doses to about 46.1 µM), for the others: at the top dose activation, actives largely listed as activators; AID 624171; 0.31% of 410,000 active; note: potency is the fitted concentration of half-maximal effect; % of control where 0% means no effect; nearly all actives have a fitted effect of over 65% in size
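Nrf2 activation is followed as ARE-luciferase induction in the AREc32 line after one day of compound treatment; luminescence is read with Steady-Glo.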
Active calls of the source: *. Unless noted, calls come from the whole dose curve; as a rule, active = well fitted curve in the direction sought with a large enough effect; inconclusive = small, poorly fitted or top-dose-only effect, or another doubt; inactive = no such curve, though single readings can be large; an effect the other way counts as inactive or inconclusive.

What do the screens show for `CC1Cc2ccccc2N1C(=O)c1ccc(N2CCCCC2)c([N+](=O)[O-])c1` (configuration not stated)?
Mito fusion yeast: 3.5%; miR-21 FLuc: 0.7%; Nrf2 block: 23.1µM*; GRP78 ERSR act: -1.0%; A549 tox: -12.5%; Nrf2 activator: 0.4%

How did COC(=O)CCN(C(=O)c1ccc(N2CCCCC2)c([N+](=O)[O-])c1)c1ccccn1 do in these assays?
Mito fusion yeast: -1.7%; miR-21 FLuc: -23.4%; Nrf2 block: -4.1%; GRP78 ERSR act: 2.9%; A549 tox: -2.2%; Nrf2 activator: 0.3%

Results for CC1Cc2ccccc2N1C(=O)c1ccc(N2CCCC2)c([N+](=O)[O-])c1 (configuration not stated) ?
Mito fusion yeast: 13.8%; miR-21 FLuc: 0.2%; Nrf2 block: 18.4µM*; GRP78 ERSR act: -0.2%; A549 tox: inconclusive; Nrf2 activator: 2.6%

What do the screens show for `N#Cc1c(C(F)(F)F)cc(-c2ccc(F)cc2)[nH]c1=O`?
Mito fusion yeast: 0.6%; miR-21 FLuc: -1.6%; Nrf2 block: inconclusive; GRP78 ERSR act: 2.6%; A549 tox: -8.5%; Nrf2 activator: 0.1%

How did N#Cc1c(C(F)(F)F)cc(-c2ccc(Cl)cc2)[nH]c1=O do in these assays?
Mito fusion yeast: 0.9%; miR-21 FLuc: 0.9%; Nrf2 block: 16.4µM*; GRP78 ERSR act: -4.2%; A549 tox: -25.5%; Nrf2 activator: 0.6%

What do the screens show for `CN(NC(=O)Nc1ccc(Cl)cc1)c1c(Cl)c(Cl)nn1C`?
Mito fusion yeast: 10.0%; miR-21 FLuc: 7.9%; Nrf2 block: -14.5%; GRP78 ERSR act: -4.9%; A549 tox: 1.9%; Nrf2 activator: -0.2%

Results for CC1(C)Cc2c(sc3nc(N/N=C/c4ccccc4)[nH]c(=O)c23)CO1 ?
Mito fusion yeast: 0.9%; miR-21 FLuc: -4.9%; Nrf2 block: -10.6%; GRP78 ERSR act: 0.8%; A549 tox: -0.3%; Nrf2 activator: -1.2%

Results for C=CCN(c1ccccc1)S(=O)(=O)c1cccc(C(=O)N2CCCC2)c1 ?
Mito fusion yeast: 3.3%; Nrf2 block: 8.2%; GRP78 ERSR act: -3.0%; A549 tox: -1.8%; Nrf2 activator: 0.2%

How did C=CCN(c1ccccc1)S(=O)(=O)c1cccc(C(=O)N2CC(C)CC(C)C2)c1 (configuration not stated) do in these assays?
Mito fusion yeast: -4.0%; miR-21 FLuc: 24.9%; Nrf2 block: 20.6µM*; GRP78 ERSR act: -4.0%; A549 tox: inconclusive; Nrf2 activator: 5.4%

Results for O=C(NCc1cccs1)c1ccc(CSc2nc3cccnc3n2Cc2ccccc2F)cc1 ?
miR-21 FLuc: -0.4%; Nrf2 block: inconclusive; GRP78 ERSR act: -2.1%; A549 tox: -20.2%; Nrf2 activator: 4.1%

How did O=C(/C=C/c1ccccc1[N+](=O)[O-])Nc1cccnc1 do in these assays?
Mito fusion yeast: 1.3%; miR-21 FLuc: -63.3%; Nrf2 block: 25.3%; GRP78 ERSR act: -0.4%; A549 tox: 10.3%; Nrf2 activator: 10.2%

Results for COc1ccc(-c2ccc3ncnc(N(C)Cc4csc(C)n4)c3c2)cc1OC ?
Nrf2 block: 3.66µM*; A549 tox: -15.0%

What do the screens show for `c1ccc(COc2ccc(Oc3nc(N4CCCCC4)nc(N4CCOCC4)n3)nn2)cc1`?
Mito fusion yeast: 14.1%; miR-21 FLuc: -9.8%; Nrf2 block: -7.3%; GRP78 ERSR act: -6.4%; A549 tox: -16.3%; Nrf2 activator: 3.4%

How did C[C@@H]1CN([C@@H](C)CO)C(=O)c2cc(N(C)C)ccc2O[C@@H](C)CCCCO[C@@H]1CN(C)S(=O)(=O)c1cccs1 do in these assays?
GRP78 ERSR act: -4.7%; Nrf2 activator: -1.9%

What do the screens show for `Cc1cccnc1CCNC(=O)CC1C(=O)NCCN1CC1CCCCC1` (configuration not stated)?
Mito fusion yeast: 2.6%; miR-21 FLuc: 0.4%; Nrf2 block: 23.1µM*; GRP78 ERSR act: 3.7%; A549 tox: 1.9%; Nrf2 activator: 1.3%

Among those listed so far, these contain two or more sulfur atoms.
Results for O=C(NCc1cccs1)c1ccc(CSc2nc3cccnc3n2Cc2ccccc2F)cc1 ?
miR-21 FLuc: -0.4%; Nrf2 block: inconclusive; GRP78 ERSR act: -2.1%; A549 tox: -20.2%; Nrf2 activator: 4.1%

How did C[C@@H]1CN([C@@H](C)CO)C(=O)c2cc(N(C)C)ccc2O[C@@H](C)CCCCO[C@@H]1CN(C)S(=O)(=O)c1cccs1 do in these assays?
GRP78 ERSR act: -4.7%; Nrf2 activator: -1.9%
